These are literature values, as cited in patent US20030118652A1, “Methods and compositions for use of (S)-bisoprolol” (priority 2001, published 2003).

The conditions of the data set: following administration of racemic bisoprolol; (S)- versus (R)-bisoprolol.

As to `CC(C)NC[C@H](O)COc1ccc(COCCOC(C)C)cc1` [(S)-bisoprolol], the “area under the plasma concentration-time curve” value is “slightly higher”.
